Experimental data published in patent publication US9932341B2, “Use of pyrazolopyrimidine derivatives for the treatment of PI3K-delta related disorders” (Incyte Corporation, priority 2013, dated 2018).

Sequences of proteins named here, by UniProt entry; tags and fusion partners are left off. A change or cut given only in a name is not applied to a line headed by its entry.
UniProt O00329: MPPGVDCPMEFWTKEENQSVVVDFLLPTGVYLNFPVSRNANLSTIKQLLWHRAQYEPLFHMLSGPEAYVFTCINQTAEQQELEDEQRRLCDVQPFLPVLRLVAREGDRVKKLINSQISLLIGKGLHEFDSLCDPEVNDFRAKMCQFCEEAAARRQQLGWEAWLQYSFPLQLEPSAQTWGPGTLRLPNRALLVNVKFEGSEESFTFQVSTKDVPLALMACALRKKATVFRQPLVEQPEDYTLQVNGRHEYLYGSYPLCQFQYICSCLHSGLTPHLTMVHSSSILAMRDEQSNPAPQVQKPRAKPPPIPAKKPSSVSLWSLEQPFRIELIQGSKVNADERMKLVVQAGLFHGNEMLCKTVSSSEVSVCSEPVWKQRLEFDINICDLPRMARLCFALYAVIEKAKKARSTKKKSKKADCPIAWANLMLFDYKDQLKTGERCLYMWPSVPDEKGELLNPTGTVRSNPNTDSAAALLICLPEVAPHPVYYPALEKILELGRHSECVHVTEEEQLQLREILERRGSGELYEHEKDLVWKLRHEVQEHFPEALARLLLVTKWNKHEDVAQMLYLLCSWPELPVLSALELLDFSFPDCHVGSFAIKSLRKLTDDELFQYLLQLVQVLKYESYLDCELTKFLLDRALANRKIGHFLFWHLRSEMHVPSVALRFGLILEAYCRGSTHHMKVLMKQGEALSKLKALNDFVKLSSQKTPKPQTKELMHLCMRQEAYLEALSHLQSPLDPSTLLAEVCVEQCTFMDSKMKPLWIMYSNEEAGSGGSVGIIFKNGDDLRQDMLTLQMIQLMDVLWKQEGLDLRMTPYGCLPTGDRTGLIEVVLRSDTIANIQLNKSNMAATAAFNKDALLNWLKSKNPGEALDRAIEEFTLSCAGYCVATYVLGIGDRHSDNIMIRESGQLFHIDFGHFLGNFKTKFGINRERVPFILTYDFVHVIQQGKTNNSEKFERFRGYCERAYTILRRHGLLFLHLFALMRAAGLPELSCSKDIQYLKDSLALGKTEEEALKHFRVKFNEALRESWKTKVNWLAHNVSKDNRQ

Molecular target: PI3Kδ (p110δ/p85α) (Homo sapiens (Human), UniProt O00329)
Test: PI3Kδ Scintillation Proximity Assay (Example A3)
Assay type: biochemical
Details: 20 μM ATP, 20 μM PIP2, 4 nM PI3Kδ, read-out: PI3Kδ SPA IC50
Description: [γ-^33P]ATP (10 mCi/mL) was purchased from PerkinElmer (Waltham, Mass.). Lipid kinase substrate, D-myo-Phosphatidylinositol 4,5-bisphosphate (PtdIns(4,5)P2)D (+)-sn-1,2-di-O-octanoylglyceryl, 3-O-phospho linked (PIP2), CAS 204858-53-7, was purchased from Echelon Biosciences (Salt Lake City, Utah). PI3Kδ (p110δ/p85α) was purchased from Millipore (Bedford, Mass.). ATP, MgCl2, DTT, EDTA, MOPS and CHAPS were purchased from Sigma-Aldrich (St. Louis, Mo.). Wheat Germ Agglutinin (WGA) YSi SPA Scintillation Beads was purchased from GE healthcare life sciences (Piscataway, N.J.).
The kinase reaction was conducted in polystyrene 384-well matrix white plate from Thermo Fisher Scientific in a final volume of 25 μL. Inhibitors were first diluted serially in DMSO and added to the plate wells before the addition of other reaction components. The final concentration of DMSO in the assay was 0.5%. The PI3K assays were carried out at room temperature in 20 mM MOPS, pH 6.7, 10 mM MgCl2, 5 mM DTT and CHAPS 0.03%. […] After the plate sealing, plates were shaken overnight at room temperature and centrifuged at 1800 rpm for 10 minutes, the radioactivity of the product was determined by scintillation counting on Topcount (PerkinElmer). […] IC50 data for the Examples is presented in Table 2 as determined by Assay A3. IC50 data for Examples 361 and 363 is shown in Table 3 as determined by Assay A2.

SMILES | IC50
COc1c(C(C)n2nc(C)c3c(N)ncnc32)cc(Cl)c(F)c1C1CN(C(C)C)C1 (centres unmarked) [Example 13, 1-{1-[5-Chloro-4-fluoro-3-(1-isopropylazetidin-3-yl)-2-methoxyphenyl]ethyl}-3-methyl-1H-pyrazolo[3,4-d]pyrimidin-4-amine bis(trifluoroacetate)] | < 10 nM
COc1c(C(C)n2nc(C)c3c(N)ncnc32)cc(Cl)c(C)c1C1CC(O)C1 (centres unmarked) [Example 166, 3-{3-[1-(4-Amino-3-methyl-1H-pyrazolo[3,4-d]pyrimidin-1-yl)ethyl]-5-chloro-2-methoxy-6-methylphenyl}cyclobutanol trifluoroacetate] | < 10 nM

Structures can show the parent of a compound that is named as a salt.
